Test results published in patent publication US20250213744A1, “ANTIMICROBIAL HYDROGEL COMPOSITION” (priority 2022, published 2025).

Experiment: Ninhydrin assay, plasma induced release of gentamicin from AMPS containing hydrogel
Format: physicochemical
Details: 4 minutes cold plasma, every time point up to 6 hours

Substance: gentamicin
- amount of gentamicin released by plasma jet against control where plasma was not applied: at least twice
